Experimental findings from US10336752B2, “TYK2 inhibitors, uses, and methods for production thereof” (Nimbus Lakshmi, Inc., priority 2017, dated 2019) are described below.

The assay concerns IL-12 induced pSTAT4 in human PBMC. Briefly: cells. The settings on record: 0.5 h, read-out: IC50 IL-12 Induced pSTAT4 in human PBMC. As to the method: Human PBMC are isolated from buffy coat and are stored frozen for assays as needed. […] 15 μl of compound or DMSO is added to the well at the desired concentrations and incubated at 1 hr at 37 C. […] The final DMSO concentration of compound in the assay is 0.1%.
For the compound `[2H]C1([2H])NC(=O)c2c(Nc3ccc(C(=O)N4C([2H])([2H])CCC4([2H])[2H])cc3)cc(-c3c(F)cccc3F)nc21` [Compound 3], the IC50 (as a rule, the point on the concentration scale where inhibition reaches its midpoint) is less than 150 nM.

In the case of `[2H]C1([2H])NC(=O)c2c(Nc3ccc(C(=O)N4CCCC4)cc3)cc(-c3c(F)cccc3F)nc21` [Compound 2], the IC50 is less than 150 nM.

Regarding `[2H]C1([2H])NC(=O)c2c(Nc3ccc(C(=O)N4C([2H])([2H])C([2H])([2H])C([2H])([2H])C4([2H])[2H])cc3)cc(-c3c(F)cccc3F)nc21` [Compound 4], the IC50 was less than 150 nM.

As for `O=C1NCc2nc(-c3c(F)cccc3F)cc(Nc3ccc(C(=O)N4CCCC4)cc3)c21` [Compound 1], the IC50 is less than 150 nM.

`[2H]C1([2H])N(C(=O)c2ccc(Nc3cc(-c4c(F)cccc4F)nc4c3C(=O)NC4)cc2)C([2H])([2H])C([2H])([2H])C1([2H])[2H]` [Compound 5]: the IC50 is less than 150 nM.
